# Ab-95 light chain CDR variants: yeast mating affinities

Values reported by Engelhart et al. 2022, doi:10.1038/s41597-022-01779-4 (FLAb copy).

All variants were tested on one target, the spike HR2 peptide PDVDLGDISGINAS (SARS-CoV-2).

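Phage display of a naive human antibody library on the peptide gave the parent. Library AAYL52 holds single substitutions and randomly drawn double and triple substitutions in the CDRs. AlphaSeq pools MATa yeast showing the antibodies with MATalpha yeast showing the peptide. Pairs that bind mate more often; barcode pairs of the diploids are counted by sequencing. Each replicate has its own calibration line, from reference interactions of the BCL2 family. The assay was run in three technical replicates.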

Parent scFv Ab-95: VH joined to VL by three GGGGS repeats. Changes lie in the light chain CDRs alone.
VH: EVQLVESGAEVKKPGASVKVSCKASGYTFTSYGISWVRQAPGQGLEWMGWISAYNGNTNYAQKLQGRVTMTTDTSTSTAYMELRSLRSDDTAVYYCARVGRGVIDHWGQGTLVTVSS
VL: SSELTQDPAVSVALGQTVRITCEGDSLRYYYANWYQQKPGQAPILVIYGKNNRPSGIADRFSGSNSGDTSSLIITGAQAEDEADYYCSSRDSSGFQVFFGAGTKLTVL

Substitutions are numbered in sequence along the VL above, starting at 1 (not Kabat).
Affinities are written as log10 Kd with Kd in nM; a lower number is a better binder.
An entry "n.d." has no value in the source: the pair was not observed among the diploids in that replicate. This suggests poor binding but is not conclusive.
As a blank, each scFv also met three strains without target: over library AAYL52, 28% of these pairings were detected, typically at 3.91 and seldom below 2.90. For each scFv, signals with the empty controls are counted beside the result, with their mean in brackets.

{"changes": "R28Q/S55P/V97T", "log10 Kd, replicates": "2.96 3.62 3.35", "control signals": "2/9 (3.02)"}
{"changes": "S55P/S92R/S93Q", "log10 Kd, replicates": "2.59 2.44 2.78", "control signals": "3/9 (3.80)"}
{"changes": "G24L/Y29G/D91Y", "log10 Kd, replicates": "3.82 3.05 3.91", "control signals": "3/9 (3.54)"}
{"changes": "R53M/S89D/S92P", "log10 Kd, replicates": "n.d. n.d. n.d.", "control signals": "2/9 (3.67)"}
{"changes": "G24Y/A32I/G49Y", "log10 Kd, replicates": "n.d. 5.23 n.d.", "control signals": "1/9 (3.29)"}
{"changes": "L27Q/R53N/S89E", "log10 Kd, replicates": "3.66 5.37 n.d.", "control signals": "4/9 (4.14)"}
{"changes": "G24K/A32I/S55L", "log10 Kd, replicates": "4.14 n.d. n.d.", "control signals": "1/9 (3.60)"}
{"changes": "R28K/A32K/F98M", "log10 Kd, replicates": "2.97 2.70 3.11", "control signals": "0/9"}
{"changes": "Y31P/S88E/S92D", "log10 Kd, replicates": "1.35 1.66 0.48", "control signals": "1/9 (3.45)"}
{"changes": "N52G/R53P/R90P", "log10 Kd, replicates": "n.d. 6.24 n.d.", "control signals": "4/9 (4.09)"}
{"changes": "L27R/P54R/V97M", "log10 Kd, replicates": "n.d. n.d. n.d.", "control signals": "3/9 (3.44)"}
{"changes": "L27G/R28A/R90W", "log10 Kd, replicates": "4.83 n.d. 3.30", "control signals": "5/9 (4.08)"}
{"changes": "N51Q/N52V/S88L", "log10 Kd, replicates": "n.d. 3.02 n.d.", "control signals": "1/9 (3.21)"}
{"changes": "G49E/P54K", "log10 Kd, replicates": "4.09 3.68 n.d.", "control signals": "3/9 (3.70)"}
{"changes": "R28F/Q96I/F98L", "log10 Kd, replicates": "n.d. 4.97 n.d.", "control signals": "2/9 (3.08)"}
{"changes": "Y30W/N52G/D91V", "log10 Kd, replicates": "2.41 3.03 2.19", "control signals": "0/9"}
{"changes": "R28L/Y31I/R90T", "log10 Kd, replicates": "n.d. 3.81 n.d.", "control signals": "0/9"}
{"changes": "R28Y/Y31S/S89R", "log10 Kd, replicates": "2.32 2.24 1.93", "control signals": "3/9 (4.30)"}
{"changes": "E23V/P54I/S92H", "log10 Kd, replicates": "3.30 2.99 3.28", "control signals": "2/9 (3.93)"}
{"changes": "G24A/G94S/F95R", "log10 Kd, replicates": "4.10 3.46 3.51", "control signals": "5/9 (4.33)"}
{"changes": "L27M/P54M/S88C", "log10 Kd, replicates": "4.03 4.62 2.66", "control signals": "2/9 (4.18)"}
{"changes": "R53V/D91F/F98I", "log10 Kd, replicates": "2.80 5.15 4.25", "control signals": "6/9 (4.44)"}
{"changes": "S26R/P54K/S88F", "log10 Kd, replicates": "4.14 3.55 n.d.", "control signals": "4/9 (3.80)"}
{"changes": "S55M/S93E/V97L", "log10 Kd, replicates": "4.00 3.50 2.97", "control signals": "2/9 (3.83)"}
{"changes": "G24H/S55N/D91Q", "log10 Kd, replicates": "n.d. n.d. n.d.", "control signals": "1/9 (3.62)"}
{"changes": "Y30L/K50V/S92G", "log10 Kd, replicates": "3.60 3.12 3.07", "control signals": "2/9 (3.84)"}
{"changes": "N52T/G94D/F98S", "log10 Kd, replicates": "2.63 2.44 2.20", "control signals": "3/9 (4.85)"}
{"changes": "Y30P/G49W/F95L", "log10 Kd, replicates": "n.d. 3.76 n.d.", "control signals": "2/9 (4.14)"}

The first 2 entries again:

{"changes": "R28Q/S55P/V97T", "log10 Kd, replicates": "2.96 3.62 3.35", "control signals": "2/9 (3.02)"}
{"changes": "S55P/S92R/S93Q", "log10 Kd, replicates": "2.59 2.44 2.78", "control signals": "3/9 (3.80)"}